Results taken from US4113858A, “Novel compounds, compositions and methods of their use” (St. Luke's Hospital, priority 1976, dated 1978).
Ends that are not written are not given here.

Test system: Guinea Pigs
Details: Group 6: challenge 150 μg BP; 2.5 mg daily for 10 days from the day hind leg paralysis is observed; listed as compound (V)

Sequence: FSWQKFSWQKFSWQKFSWQKG [Compound V, H -- Phe -- Ser -- Trp -- Gln -- Lys]4 Gly -- OH]
- Reversal clinical EAE: sufficient to reverse tremor and hind leg paralysis in addition to lethargy and weight loss in the five treated animals
